Values of other authors in patent publication US8507550B2, “Treatment for altitudinal hypoxia” (AesRx LLC, priority 2010, dated 2013).

Tested on: rats
Conditions: males; cited from earlier work

O=Cc1ccc(CO)o1 [5-HMF, 5-hydroxymethyl-2-furfural]
acute oral LD50: 2500 mg/kg
